Earlier results in US20150283139A1, “CANCER TREATMENT METHOD” (SmithKline Beecham (Cork) Limited, priority 2004, published 2015).

Settings: cited from earlier work

In the case of “trastuzumab: large (Mr 148,000) monoclonal antibody”, the “crossing of the blood-brain barrier” value (in vivo) is listed as “does not cross the blood-brain barrier” and the “access to the CNS” value (preclinical xenograft models and patients with CNS metastases) is listed as “remains excluded from the CNS”.
